Assay results as given in ChEMBL document CHEMBL1131221, “2'-C-Methyl analogues of selective adenosine receptor agonists: synthesis and binding studies” (J Med Chem, 1998).

Sequences of proteins named here, by UniProt entry; tags and fusion partners are left off.
UniProt P28647, whole entry: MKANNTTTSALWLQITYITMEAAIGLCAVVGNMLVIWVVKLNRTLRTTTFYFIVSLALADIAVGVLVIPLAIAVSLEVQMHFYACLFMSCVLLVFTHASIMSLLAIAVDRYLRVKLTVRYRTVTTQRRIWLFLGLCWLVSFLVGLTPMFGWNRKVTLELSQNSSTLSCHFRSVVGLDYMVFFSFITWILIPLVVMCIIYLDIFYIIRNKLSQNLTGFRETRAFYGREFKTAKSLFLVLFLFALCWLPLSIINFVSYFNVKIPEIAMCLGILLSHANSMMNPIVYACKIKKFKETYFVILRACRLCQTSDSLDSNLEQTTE

Target: Adenosine receptor A3 (Rattus norvegicus, UniProt P28647)
Experiment: Inhibitory activity against Adenosine A3 receptor by inhibiting specific [3H](R)-PIA binding to rat testis membranes
Parameters: species or system Membrane

Ki: 26 nM
Structure (SMILES): OC[C@H]1O[C@@H](n2cnc3c(NC4CCCC4)ncnc32)[C@H](O)[C@@H]1O [N6-CYCLOPENTYLADENOSINE]
